Results as given in patent US20150157739A1, “Imidazo[2,1]thiazol-3-one derivatives” (Hoffmann-La Roche Inc., priority 2012, published 2015).
Read-outs that look alike come from different tables or passages of the source.

Protein sequences, listed by entry. Tags and fused reporters are not part of them. Residues count along the entry.
UniProt P05067, 672-711 limits assumed: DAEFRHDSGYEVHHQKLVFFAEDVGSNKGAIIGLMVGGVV
UniProt P10636, whole entry: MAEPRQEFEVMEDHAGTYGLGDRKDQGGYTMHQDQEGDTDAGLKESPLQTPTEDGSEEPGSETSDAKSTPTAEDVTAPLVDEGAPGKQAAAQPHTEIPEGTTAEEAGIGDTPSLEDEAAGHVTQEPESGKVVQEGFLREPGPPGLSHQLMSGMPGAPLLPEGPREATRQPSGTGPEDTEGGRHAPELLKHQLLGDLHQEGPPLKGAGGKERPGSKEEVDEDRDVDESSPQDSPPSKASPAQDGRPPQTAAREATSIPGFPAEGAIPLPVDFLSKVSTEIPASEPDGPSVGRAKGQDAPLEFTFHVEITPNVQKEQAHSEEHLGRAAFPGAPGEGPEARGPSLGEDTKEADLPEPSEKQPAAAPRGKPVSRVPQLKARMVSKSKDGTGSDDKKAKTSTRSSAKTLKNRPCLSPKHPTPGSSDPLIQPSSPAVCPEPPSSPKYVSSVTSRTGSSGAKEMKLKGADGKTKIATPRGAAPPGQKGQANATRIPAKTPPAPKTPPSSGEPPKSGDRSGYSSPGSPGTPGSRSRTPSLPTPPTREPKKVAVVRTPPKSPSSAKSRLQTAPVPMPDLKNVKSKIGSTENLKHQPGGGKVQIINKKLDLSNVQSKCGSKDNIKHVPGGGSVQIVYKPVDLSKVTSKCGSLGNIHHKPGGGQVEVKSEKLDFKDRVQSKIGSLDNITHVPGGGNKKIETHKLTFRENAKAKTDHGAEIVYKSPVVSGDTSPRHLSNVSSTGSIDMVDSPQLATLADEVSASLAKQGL

Legend:
[1] = biological target: T1, aggregated synthetic Aβ40 (Homo sapiens, UniProt P05067); assay: Thiazin-red R displacement fluorescence assay on aggregated A-beta; type: binding
T1 construct: Synthetic Aβ40 is aggregated at a concentration of 50 μM
Method: (§1) Assay for Determination of […] for Tau and A-Beta
(§2) Recombinant human-microtubule associated protein Tau purified from E. coli is aggregated at a concentration of 5 μM with Arachidonic Acid (100 μM) in Tris 10 mM pH8, 24 h at 37° C. Synthetic Aβ40 is aggregated at a concentration of 50 μM with Arachidonic Acid (100 μM) in Tris 10 mM pH8, for three days at 37° C., under shaking at 150 rpm.
(§3) A saturation analysis of Thiazin-red R to the aggregated proteins is done to determine the affinity (Kd) of the Thiazin-red R to the aggregated protein.
(§4) Thiazin-red R will be added at the concentration corresponding to the Kd to the respective aggregated protein binding site, to induce a fluorescent signal that can be inhibited by the addition of a displacer compound.
(§5) In parallel, auto fluorescence of the compound is measured together with the aggregated proteins, but without Thiazin-red R. As negative control, ligand and aggregated protein is used and as positive control, Thiazin-red R, reference compound with known activity and aggregated protein is used.
(§6) Assay is performed in Perkin Elmer OptiPlate 384, black, 45 ul assay volume, assay buffer is DPBS no CaCl2 no MgCl2 (GIBCO N. 14020). Tested compounds are diluted in DMSO and 2 μl is added to the assay ([…]). Assay is started by the addition of the aggregated protein (competitive condition). […]

[2] = biological target: T2, aggregated recombinant human-microtubule associated protein Tau (Homo sapiens, UniProt P10636); assay: Thiazin-red R displacement fluorescence assay on aggregated Tau; type: binding
T2 construct: Recombinant human-microtubule associated protein Tau purified from E. coli is aggregated at a concentration of 5 μM with Arachidonic Acid (100 μM) in Tris 10 mM pH8, 24 h at 37° C
Method: as §1, §2, §3, §4, §5, §6

| IC50 ([1]; displacement of Thiazin-red R from aggregated Aβ40, compound 0.3 nM to 10000 nM, 30 min room temperature, Ex 531 nm/Em 595 nm) [nM] | IC50 ([2]; displacement of Thiazin-red R from aggregated Tau, compound 0.3 nM to 10000 nM, 30 min room temperature, Ex 531 nm/Em 595 nm) [nM] | Structure (SMILES) | IC50 [1] [nM] | IC50 [2] [nM] |
| --- | --- | --- | --- | --- |
| 253 | 0.5 | COc1cc(/C=c2\sc3nc(-c4cccc(Cl)c4)cn3c2=O)cc(Cl)c1O [Example 25, 6-(3-Chloro-phenyl)-2-[1-(3-chloro-4-hydroxy-5-methoxy-phenyl)-meth-(Z)-ylidene]-imidazo[2,1-b]thiazol-3-one] | – | – |
| – | – | COc1cc(/C=c2\sc3nc(-c4cccc(Cl)c4)cn3c2=O)cc(OC)c1O [Example 21, 6-(3-Chloro-phenyl)-2-[1-(4-hydroxy-3,5-dimethoxy-phenyl)-meth-(Z)-ylidene]-imidazo[2,1-b]thiazol-3-one] | 6 | 1 |
